Assay results reported in article PMC3666173 (Basic research in cardiology, 2012).

By UniProt entry, the sequences of proteins in these tests, tags left out. Residues count along the entry.
UniProt P17302, 255-382: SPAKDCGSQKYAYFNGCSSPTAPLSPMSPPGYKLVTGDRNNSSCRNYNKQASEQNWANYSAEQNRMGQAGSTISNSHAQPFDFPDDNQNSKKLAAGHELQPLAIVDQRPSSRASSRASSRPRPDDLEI

Target: Cx43 CT tail (AAs 255–382) (Homo sapiens, UniProt P17302)
Assay: SPR binding of purified Cx43 CT tail to immobilized biotin-peptides
Settings: Cx43CT 7 μM, maximal response, n = 3

- association with CT tail: clear association
Compound: CC[C@H](C)[C@H](NC(=O)CNC(=O)[C@H](Cc1ccc(O)cc1)NC(=O)[C@H](CCCCN)NC(=O)[C@H](Cc1ccccc1)NC(=O)[C@H](CCCCN)NC(=O)[C@H](CCCCN)NC(=O)[C@@H](NC(=O)[C@H](CCC(=O)O)NC(=O)[C@@H](NC(=O)[C@H](CCC(N)=O)NC(=O)[C@H](CCCCN)NC(=O)[C@H](CC(C)C)NC(=O)[C@H](Cc1c[nH]cn1)NC(=O)[C@H](CCSC)NC(=O)[C@H](CC(=O)O)NC(=O)[C@@H](NC(=O)[C@H](CC(N)=O)NC(=O)[C@H](C)NC(=O)CNC(=O)[C@@H](N)CC(=O)O)C(C)C)[C@@H](C)CC)[C@@H](C)CC)C(=O)N[C@@H](CCC(=O)O)C(=O)N[C@@H](CCC(=O)O)C(=O)N[C@@H](Cc1c[nH]cn1)C(=O)NCC(=O)N[C@@H](CCCCN)C(=O)O [L2]
